Measured values as given in PMC11506018, “Targeting PARP-1 and DNA Damage Response Defects in Colorectal Cancer Chemotherapy with Established and Novel PARP Inhibitors” (Cancers, 2024).

Test system: HCT116 BRCA2−/− cells
Experiment: cell viability, resazurin reduction assay, HCT116 BRCA2-/-
Conditions: IT 0.25 µM, 5-FU 0.1 µM, OXA 0.25 µM, 72 h

C[C@]1(c2nc3c(C(N)=O)cccc3[nH]2)CCCN1 [Veliparib, veliparib]
cell viability in combination with chemotherapeutics: increased the sensitivity to IT and OXA in a BRCA2-deficient background
